Publication PMC3260246

By UniProt entry, the sequences of proteins in these tests, tags left out. Where a name states a change or a piece, a line headed by the entry shows the natural chain unless it says otherwise.
UniProt P02489, whole entry R12A: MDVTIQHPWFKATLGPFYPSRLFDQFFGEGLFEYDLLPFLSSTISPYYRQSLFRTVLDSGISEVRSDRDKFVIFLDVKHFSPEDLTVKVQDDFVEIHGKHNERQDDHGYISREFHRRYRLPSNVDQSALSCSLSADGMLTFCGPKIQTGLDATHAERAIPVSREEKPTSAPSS
UniProt P02526: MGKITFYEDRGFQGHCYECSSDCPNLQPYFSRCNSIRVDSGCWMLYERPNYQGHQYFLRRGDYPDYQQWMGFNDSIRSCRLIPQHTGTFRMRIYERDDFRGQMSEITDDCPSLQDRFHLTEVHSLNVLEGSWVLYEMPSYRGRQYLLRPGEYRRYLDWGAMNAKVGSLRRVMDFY

Assays:
[1] = target: αA-crystallin R12A mutant (human) (UniProt P02489)
[2] = target: wild-type human αA-crystallin (human) (UniProt P02489); assay: membrane filtration equilibrium binding (Scatchard plot); 12.5 µM wild-type or mutant small heat shock protein incubated 1 hr at 60°C with 2–18 µM γ-crystallin in 50 mM phosphate buffer, 100 mM NaCl, pH 7.2; unbound substrate separated through a 100-kDa cut off Microcon filter; n per subunit of chaperone
[3] = target: αA-crystallin R12A mutant (human) (UniProt P02489); assay: as above

- increase in the chaperone function compared to the Wt protein, γ-crystallin as client protein (thermal aggregation assay) [1]: 15%
- Ka [2]: 118000 M⁻¹
- Kd [2]: 8.44 µM
- Kd [3]: 8.07 µM
- stoichiometry N [3]: 4.68
Substance: bovine γ-crystallin (from UniProt P02526 1-175) (natural protein)
